Here are results for 2 compounds from patent US9932349B2 (priority 2000, dated 2018).

Sequences of proteins named here, by UniProt entry; tags and fusion partners are left off. A change or cut given only in a name is not applied to a line headed by its entry.
UniProt P41144: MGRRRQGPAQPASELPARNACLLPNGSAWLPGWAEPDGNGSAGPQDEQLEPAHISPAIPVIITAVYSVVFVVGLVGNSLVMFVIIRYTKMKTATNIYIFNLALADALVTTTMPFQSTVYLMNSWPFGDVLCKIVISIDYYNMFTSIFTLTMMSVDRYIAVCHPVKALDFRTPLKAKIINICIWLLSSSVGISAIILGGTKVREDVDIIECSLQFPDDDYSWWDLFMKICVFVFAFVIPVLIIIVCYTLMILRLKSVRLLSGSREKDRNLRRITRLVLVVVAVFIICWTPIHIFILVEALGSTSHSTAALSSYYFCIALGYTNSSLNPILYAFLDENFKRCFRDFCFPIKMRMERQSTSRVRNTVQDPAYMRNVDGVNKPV

Several values for one entry are separate records, joined by “and”; a condition that tells them apart may be missing. Identical values can stand only once.

The assay addresses T1, κ opioid receptor (Cavia porcellus, UniProt P41144).
T1 construct: determined in guinea pig brain cells; from tissue; host or cells: guinea pig brain
The assay is described as follows: biochemical. The following applies: Ki [3H] U69,593 (κ). Format: binding, guinea pig.

Take `C[C@H]1C2Cc3ccc(C(N)=O)cc3[C@@]1(C)CCN2CC1CC1` (racemic) [Example 4, (±)-3-(Cyclopropylmethyl)-1,2,3,4,5,6-hexahydro-cis-6,11-dimethyl-2,6-methano-3-benzazocin-8-carboxamide]: the Ki is 0.53 nM and 0.6 nM and 0.42 nM.

For the compound `CC1C2Cc3ccc(C(N)=O)cc3C1(C)CCN2CC1CC1` (single isomer, unassigned) [Example 4b], the affinity corresponds to a Ki of 67 ± 1.6 nM.

For orientation: Ki means a measure of affinity in units of concentration, obtained from inhibition or displacement.
